Reference: US20170174769A1

The chains behind the UniProt entries cited, without tags or fusion partners. Residues count along the entry.
UniProt P11362, 22-822, chain 1 of 2: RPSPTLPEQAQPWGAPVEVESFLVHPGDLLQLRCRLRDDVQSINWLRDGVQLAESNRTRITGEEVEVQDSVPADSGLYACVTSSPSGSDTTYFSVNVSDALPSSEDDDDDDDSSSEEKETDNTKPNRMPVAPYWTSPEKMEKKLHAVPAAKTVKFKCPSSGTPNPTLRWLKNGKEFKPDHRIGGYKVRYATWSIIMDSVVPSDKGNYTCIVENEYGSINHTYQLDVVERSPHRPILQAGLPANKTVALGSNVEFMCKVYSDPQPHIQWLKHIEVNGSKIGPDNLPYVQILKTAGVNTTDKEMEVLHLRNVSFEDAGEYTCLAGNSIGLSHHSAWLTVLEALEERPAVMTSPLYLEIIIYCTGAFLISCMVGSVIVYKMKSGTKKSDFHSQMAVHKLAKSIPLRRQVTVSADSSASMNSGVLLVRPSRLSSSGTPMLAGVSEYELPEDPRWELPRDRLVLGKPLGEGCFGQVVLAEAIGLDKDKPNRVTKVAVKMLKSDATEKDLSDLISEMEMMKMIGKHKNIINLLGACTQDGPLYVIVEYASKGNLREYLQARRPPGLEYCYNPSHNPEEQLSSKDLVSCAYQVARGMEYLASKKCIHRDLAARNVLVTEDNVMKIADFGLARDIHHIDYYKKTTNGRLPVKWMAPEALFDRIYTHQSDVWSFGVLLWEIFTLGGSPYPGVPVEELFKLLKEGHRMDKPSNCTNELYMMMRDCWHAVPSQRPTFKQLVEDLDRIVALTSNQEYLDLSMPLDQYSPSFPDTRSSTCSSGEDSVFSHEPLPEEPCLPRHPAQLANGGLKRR
UniProt Q86Z14, whole entry, chain 1 of 2: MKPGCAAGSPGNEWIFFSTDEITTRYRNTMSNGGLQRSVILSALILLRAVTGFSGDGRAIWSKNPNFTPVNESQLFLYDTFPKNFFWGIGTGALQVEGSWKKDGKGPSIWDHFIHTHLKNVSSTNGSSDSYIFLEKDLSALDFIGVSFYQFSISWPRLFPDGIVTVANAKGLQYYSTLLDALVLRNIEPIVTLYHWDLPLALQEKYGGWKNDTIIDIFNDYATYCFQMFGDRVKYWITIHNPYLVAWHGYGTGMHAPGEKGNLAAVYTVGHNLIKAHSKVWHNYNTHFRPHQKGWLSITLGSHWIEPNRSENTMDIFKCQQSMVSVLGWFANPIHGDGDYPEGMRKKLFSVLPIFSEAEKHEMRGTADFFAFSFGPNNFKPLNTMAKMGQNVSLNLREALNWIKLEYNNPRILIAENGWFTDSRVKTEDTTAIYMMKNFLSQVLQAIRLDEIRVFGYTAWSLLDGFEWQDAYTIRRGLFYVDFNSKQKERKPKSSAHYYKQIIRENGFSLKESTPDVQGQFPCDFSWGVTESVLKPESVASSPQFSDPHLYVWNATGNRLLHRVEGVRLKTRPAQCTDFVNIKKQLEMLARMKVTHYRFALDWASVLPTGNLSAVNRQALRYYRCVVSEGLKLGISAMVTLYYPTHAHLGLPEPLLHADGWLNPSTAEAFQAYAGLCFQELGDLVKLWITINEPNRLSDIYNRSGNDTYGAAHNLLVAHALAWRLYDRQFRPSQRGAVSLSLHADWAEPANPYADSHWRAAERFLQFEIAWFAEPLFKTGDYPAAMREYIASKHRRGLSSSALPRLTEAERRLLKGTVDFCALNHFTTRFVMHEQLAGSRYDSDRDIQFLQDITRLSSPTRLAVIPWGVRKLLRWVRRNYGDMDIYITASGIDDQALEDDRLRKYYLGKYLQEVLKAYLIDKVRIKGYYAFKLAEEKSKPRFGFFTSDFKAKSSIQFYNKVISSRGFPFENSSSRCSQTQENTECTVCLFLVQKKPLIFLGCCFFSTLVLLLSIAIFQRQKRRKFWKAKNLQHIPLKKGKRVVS
UniProt Q86Z14, 1-996 limits assumed: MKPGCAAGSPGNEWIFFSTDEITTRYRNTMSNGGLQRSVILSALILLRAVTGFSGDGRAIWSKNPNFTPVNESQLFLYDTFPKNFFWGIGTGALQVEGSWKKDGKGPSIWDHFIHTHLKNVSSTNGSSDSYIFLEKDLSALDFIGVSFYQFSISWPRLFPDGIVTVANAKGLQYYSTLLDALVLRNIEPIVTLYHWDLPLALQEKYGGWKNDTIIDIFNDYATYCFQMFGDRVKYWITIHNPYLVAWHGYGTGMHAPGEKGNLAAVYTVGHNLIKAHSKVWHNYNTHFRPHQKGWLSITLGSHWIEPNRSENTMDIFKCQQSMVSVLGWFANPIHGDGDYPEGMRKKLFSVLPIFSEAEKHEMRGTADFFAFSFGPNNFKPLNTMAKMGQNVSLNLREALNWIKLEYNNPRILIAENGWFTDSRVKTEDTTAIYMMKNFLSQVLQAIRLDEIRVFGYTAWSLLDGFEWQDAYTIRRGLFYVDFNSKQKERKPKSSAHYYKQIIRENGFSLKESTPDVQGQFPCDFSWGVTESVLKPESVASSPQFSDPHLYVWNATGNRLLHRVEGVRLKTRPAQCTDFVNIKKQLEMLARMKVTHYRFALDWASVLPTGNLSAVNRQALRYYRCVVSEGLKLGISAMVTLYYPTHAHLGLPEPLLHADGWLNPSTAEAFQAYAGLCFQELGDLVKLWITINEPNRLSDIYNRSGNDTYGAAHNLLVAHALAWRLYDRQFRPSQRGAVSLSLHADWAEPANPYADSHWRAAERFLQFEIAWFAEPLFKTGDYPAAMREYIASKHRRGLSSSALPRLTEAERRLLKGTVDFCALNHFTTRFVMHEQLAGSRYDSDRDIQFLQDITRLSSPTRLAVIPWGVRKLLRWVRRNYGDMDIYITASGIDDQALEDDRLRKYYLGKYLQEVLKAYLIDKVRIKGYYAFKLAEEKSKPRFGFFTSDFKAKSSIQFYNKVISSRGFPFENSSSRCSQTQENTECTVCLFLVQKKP

Experiments:
[1] = molecular target: mouse KLB and mouse FGFR1c co-expressed on HEK293/mKLB/mFGFR1c/SRE-Luc cells (mouse); test: FACS on stable HEK293 cells, 33 nM
[2] = molecular target: full-length human FGFR1c on HEK293/hFGFR1c/SRE-luc cells (human) (UniProt P11362); test: FACS on stable HEK293 cells, 33 nM
[3] = molecular target: human KLB and human FGFR1c co-expressed on HEK293/hKLB/hFGFR1c/SRE-luc cells (human) (UniProt Q86Z14); test: FACS on stable HEK293 cells, 33 nM
[4] = molecular target: human KLB and human FGFR1c co-expressed on HEK293/hKLB/hFGFR1c/SRE-luc cells (human) (UniProt Q86Z14); test: cell-based or functional assay
[5] = molecular target: cell-surface human FGFR1c (amino acids 1-731 of NP_075594) with cell-surface human KLB on HEK293/hFGFR1c/hKLB/SRE-Luc cells of Example 19 (human) (UniProt P11362); test: cell-based or functional assay
[6] = molecular target: extracellular domain of human FGFR1c expressed with C-terminal V5 and hexahistidine tags (human) (UniProt P11362); test: SPR, mAb captured, 25 C
[7] = molecular target: extracellular domain of human KLB expressed with C-terminal HA and hexahistidine tags (human) (UniProt Q86Z14); test: SPR, mAb captured, 25 C
[8] = molecular target: cell-surface human FGFR1c (amino acids 1-731 of NP_075594) with cell-surface human KLB on HEK293/hFGFR1c/hKLB/SRE-Luc cells of Example 19 (human) (UniProt P11362); test: cell-based or functional assay; remark: listed apart in the source
[9] = molecular target: extracellular domain of human FGFR1c expressed with C-terminal V5 and hexahistidine tags (human) (UniProt P11362); test: SPR, mAb captured, 37 C
[10] = molecular target: extracellular domain of human KLB expressed with C-terminal HA and hexahistidine tags (human) (UniProt Q86Z14); test: SPR, mAb captured, 37 C
[11] = molecular target: full-length human FGFR1c on HEK293/hFGFR1c/SRE-luc cells (human) (UniProt P11362); test: FACS on stable HEK293 cells
[12] = molecular target: human KLB and human FGFR1c co-expressed on HEK293/hKLB/hFGFR1c/SRE-luc cells (human) (UniProt Q86Z14); test: FACS on stable HEK293 cells
[13] = molecular target: full-length human KLB on HEK293/hKLB/SRE-luc cells (human) (UniProt Q86Z14); test: FACS on stable HEK293 cells

B1: Comparator 1 (antibody, from another filing, V domains shown)
VH: QVTLKESGPVLVKPTETLTLTCTVSGFSLNNARMGVSWIRQPPGKALEWLAHIFSNDEKSYSTSLKSRLTISKDTSKSQVVLIMTNMDPVDTATYYCARSVVTGGYYYDGMDVWGQGTTVTVSS
VL: SYVLTQPPSVSVAPGQTARITCGGNNIGSESVHWYQQKPGQAPVLVVYDDSDRPSGIPERFSGSNSGNTATLTISRVEAGDEADYYCQVWDGNSDHVVFGGGTKLTVLG
MFI Ratio to unstained cells [1]: 1 fold | MFI Ratio to unstained cells [2]: 1 fold | MFI Ratio to unstained cells [3]: 15 fold | EC50, SRE-luc activation without ligand [4]: 0.15 nM | IC50, inhibition of 1 nM 6His-hFGF21 [4]: 0.11 nM | Maximum Activation (%) [4]: 4.5% | Maximum Inhibition (%) [4]: 72% | % Activation [5]: 6.1% | EC50, SRE-luc activation [5]: 0.17 nM | 180 nM hFGFR1c-V5-6His Bind (RU) [6]: 0.4 RU | 20 nM hKLB-HA-6His Bind (RU) [7]: 75.3 RU | Kd [7]: 0.305 nM | koff [7]: 0.000149 s⁻¹ | kon [7]: 489000 M⁻¹ s⁻¹ | t1/2 [7]: 77.5 min | % Activation [8]: 7.5% | EC50, SRE-luc activation [8]: 0.24 nM | 180 nM hFGFR1c-V5-6His Bind (RU) [9]: 0 RU | 20 nM hKLB-HA-6His Bind (RU) [10]: 189 RU | Kd [10]: 0.614 nM | koff [10]: 0.000321 s⁻¹ | kon [10]: 523000 M⁻¹ s⁻¹ | t1/2 [10]: 36 min | binding ratio to unstained cells [11]: 1 fold | binding ratio to unstained cells [12]: 22 fold | binding ratio to unstained cells [13]: 10 fold

Like-named read-outs stand apart in the source and are kept apart here.
